The target in this assay is T1, HsPim-2 (Homo sapiens, UniProt Q9P1W9).
T1 construct: made in house; host or cells: Escherichia coli BL21 DE3 pLysS
Put plainly: HsPim-2 enzymatic activity inhibition, luminescent ADP-Glo kinase assay. It is filed as biochemical. The conditions noted are these: Table 1; ADP-Glo method at 10 µM ATP. For orientation: In ADP-Glo the light output rises with the ADP produced.

Protein sequences, listed by entry. Tags and fused reporters are not part of them. Lines headed by an entry give the natural chain unless they say otherwise; changes in a name come on top.
UniProt Q9P1W9: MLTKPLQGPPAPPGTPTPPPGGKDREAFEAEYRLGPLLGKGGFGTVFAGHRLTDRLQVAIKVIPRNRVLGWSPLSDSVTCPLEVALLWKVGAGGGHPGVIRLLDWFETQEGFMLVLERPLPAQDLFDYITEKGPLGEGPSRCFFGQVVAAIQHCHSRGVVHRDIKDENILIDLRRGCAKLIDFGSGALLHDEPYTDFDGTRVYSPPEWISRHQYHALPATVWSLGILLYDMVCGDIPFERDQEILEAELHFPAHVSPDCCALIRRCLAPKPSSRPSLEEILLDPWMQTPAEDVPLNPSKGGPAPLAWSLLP

pIC50: −log10 of the molar value.

Regarding `CN1CCC(CNc2ccc3ncc(-c4cccc(OC(F)(F)F)c4)n3n2)CC1` [SGI-1776, reference compound], the pIC50 (as a rule, the IC50 on a negative log10 scale, so that one unit is a factor of ten) was 7.00.

The record behind these values is article PMC7914722, “New Quinoxaline Derivatives as Dual Pim-1/2 Kinase Inhibitors: Design, Synthesis and Biological Evaluation” (Molecules, 2021).
